Patent US4235803A, “1,6-Dimesyl-3,4-dimethyl-D-mannitol and a process for the preparation thereof” (priority 1978, dated 1980)

Legend:
Yoshida sc. sarcoma = assay: Comparison of the ED50 values on Yoshida sc. sarcoma of rats (transplanted solid tumor); assay type: in vivo, rat; conditions: for Relative activity: calculated by comparing the ED50 values
Source text: (§1) The following tumor strains were applied:
Rat: Yoshida sc. sarcoma
(§2) The animals received water ad libitum.

[1] = tested on: peripheral blood count (granulocytes, lymphocytes); conditions: rat, in vivo
P-388 leukaemia = assay: Tumor inhibiting effect on leukaemia type tumors: P-388; assay type: in vivo, mouse
Source text: as §1, §2
Healing=tumor-free survival of 90 days after transplantation

[2] = tested on: transplantable mouse and rat tumors; assay: Cytostatic effect / growth inhibition on transplantable mouse and rat tumors (overall statements); conditions: solid tumors; in words
Protocol: Our tests were performed on various transplantable mouse and rat tumors. The following tumor strains were applied:
The tests were always performed on animals of both sexes. At the beginning of the tests the average body weight of mice was 20 to 22 g, whereas that of rats 150 to 180 g. The animals were kept in plastic cages and fed with a standard laboratory animal feed (LATI, Godollo, Hungary). The animals received water ad libitum.
Solid tumors were transplanted by a subcutaneous implantation of tumor chips. Ascites type tumors were transplanted with 10^7 cells received from the ascites, whereas leukaemia type tumors were transplanted with spleen suspension. The treatment of the animals was started 24 hours after transplantation, with the only exception of Harding-Passey melanoma, when treatment was started on the 4th day after transplantation.

Compound	Relative activity (Yoshida sc. sarcoma; i.p.)	Relative activity (Yoshida sc. sarcoma; p.o.)	effect on haematopoiesis (formation of myeloid leukocytes) [1]	Healing (tumor-free survival of 90 days after transplantation) (P-388 leukaemia; 100 mg/kg, 4 × i.p.)	Prol. of life span (P-388 leukaemia; 100 mg/kg, 4 × i.p.) [%]	antileukaemic effect (P-388 leukaemia; in words)	therapeutical indices (LD50/ED50) [2]	relative activity (comparison of ED50 values with reference substances) (Yoshida sc. sarcoma; in words)	haematopoietic activity [1]	selectivity of the haematopoietic effect [1]
CS(=O)(=O)OC[C@@H](O)[C@@H](O)[C@H](O)[C@H](O)COS(C)(=O)=O [1,6-Dimesyl-D-mannitol (Mannogranol), 1,6-dimesyl-D-mannitol]	0.04	0.116	rather strong and selective action on the formation of myeloid leukocytes							
CO[C@@H]([C@H](OC)[C@H](O)COS(C)(=O)=O)[C@H](O)COS(C)(=O)=O [compound of formula (I), 1,6-dimesyl-3,4-dimethyl-D-mannitol]	1	1		0/8	82	weak antileukaemic effect	very favourable therapeutical indices	high superiority	weak	not selective
